Values quoted from earlier work as cited in patent US20260069581A1, “METHODS AND COMPOSITIONS FOR CANCER THERAPY” (OHIO STATE INNOVATION FOUNDATION, priority 2020, published 2026).

Target: T1, HDAC8 (Homo sapiens, UniProt Q9BY41)
T1 sequence (Q9BY41 1-377): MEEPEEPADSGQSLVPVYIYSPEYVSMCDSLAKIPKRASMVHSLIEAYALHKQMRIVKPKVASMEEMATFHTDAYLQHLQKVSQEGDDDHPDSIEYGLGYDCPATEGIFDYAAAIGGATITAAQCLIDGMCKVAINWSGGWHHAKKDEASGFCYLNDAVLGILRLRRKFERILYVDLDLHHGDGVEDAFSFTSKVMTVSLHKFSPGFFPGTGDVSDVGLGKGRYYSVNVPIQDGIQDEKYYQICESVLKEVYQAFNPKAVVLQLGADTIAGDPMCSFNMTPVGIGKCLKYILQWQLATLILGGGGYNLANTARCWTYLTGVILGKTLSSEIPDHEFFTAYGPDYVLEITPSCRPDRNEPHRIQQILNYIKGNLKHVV
Details: Ref. 25; cited from earlier work

For `COc1ccc(Cn2ccc3ccc(C(=O)NO)cc32)cc1` [PCI-34051], which “selectivity for HDAC8 over other HDAC isoforms” value is on record?
The value was over 200 fold.
